Values quoted from earlier work in patent publication US20060029940A1, “Prostate stem cell antigen (PSCA) variants and subsequences thereof” (priority 2003, published 2006).

Details: patients treated with Herceptin alone

For “Herceptin: FDA approved pharmaceutical whose active ingredient is an antibody immunoreactive with HER2”, the significant cardiotoxicity is given as “very low percentage of patients”.
